Laboratory results published in publication PMC11694070, “Development of 6-amido-4-aminoisoindolyn-1,3-diones as p70S6K1 inhibitors and potential breast cancer therapeutics” (Frontiers in Molecular Biosciences, 2024).

Sequences of proteins named here, by UniProt entry; tags and fusion partners are left off. Residues count along the entry.
UniProt P23443, 24-525: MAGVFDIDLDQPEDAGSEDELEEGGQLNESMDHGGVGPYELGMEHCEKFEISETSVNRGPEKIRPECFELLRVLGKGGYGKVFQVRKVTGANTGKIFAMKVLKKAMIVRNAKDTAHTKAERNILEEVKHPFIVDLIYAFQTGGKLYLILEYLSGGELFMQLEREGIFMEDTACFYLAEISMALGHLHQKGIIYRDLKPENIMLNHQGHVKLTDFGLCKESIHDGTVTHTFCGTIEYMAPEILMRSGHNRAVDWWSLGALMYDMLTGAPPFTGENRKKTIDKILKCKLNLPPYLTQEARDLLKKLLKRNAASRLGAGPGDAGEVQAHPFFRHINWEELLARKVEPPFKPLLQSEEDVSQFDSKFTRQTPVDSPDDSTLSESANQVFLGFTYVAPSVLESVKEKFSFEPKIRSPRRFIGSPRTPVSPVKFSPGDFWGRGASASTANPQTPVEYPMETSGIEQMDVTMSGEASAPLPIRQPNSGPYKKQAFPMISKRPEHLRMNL

Biological target: p70S6K1 (Homo sapiens, UniProt P23443)
Test: Z′-LYTE biochemical kinase inhibition assay (SelectScreen, Thermo Fisher)
Conditions: 10-point titration, 3-fold dilutions from 25 μM
Description: The high-throughput and dose-response curve assays against kinases were performed using the services of SelectScreen™ Biochemical Kinase Profiling Service by Thermo Fisher Scientific (Table 2; Supplementary Figure S13). The Z ´-LYTE biochemical assay employs a fluorescence-based, coupled-enzyme format based on the differential sensitivity of phosphorylated and non-phosphorylated peptides to proteolytic cleavage. The peptide substrate is labeled with two fluorophores—one at each end—that make up a fluorescence resonance energy transfer (FRET) pair. In the primary reaction, the kinase transfers the gamma-phosphate of ATP to a single tyrosine, serine, or threonine residue in a synthetic FRET-peptide. […] A ratiometric method, which calculates the emission ratio of donor emission to acceptor emission after excitation of the donor fluorophore at 400 nm, is used to quantitate reaction progress, as shown in the equation below.” Emission ratio=Coumarin emission 445 nm/Flourescein emission 520 nm. […]
All ATP Solutions are diluted to a 4X working concentration in kinase buffer (50 mM HEPES pH 7.5, 0.01% BRIJ-35, 10 mM MgCl2, 1 mM EGTA). ATP Km apparent was previously determined using a Z′-LYTE assay.
Bar-coded Corning, low volume NBS, black 384-well plate (Corning Cat. #4514). • 1. […] Read on the fluorescence plate reader and analyze the data […]

IC50: 0.18 µM
SMILES: CCc1cncnc1N1CCN(Cc2nc3cc(C(F)(F)F)ccc3[nH]2)CC1 [PF-4708671]
